≈ marks a conversion by molar mass, not a printed value.
Key:
[1] = in vitro; settings: male, CD1, mouse, microsomes, pH 7.4
[2] = physchem; settings: pH 7.4
[3] = physchem; settings: pH 7.4; remark: listed apart in the source
[4] = pH 7.4

SMILES | microsomal CLint at 1 µM [1] | solubility kinetic at 2 h, 100 µM [2] | chromatographic logD [3] | decrease in lipophilicity [4]
Cc1ccc(NC(=O)c2ccc3c(c2)OCCO3)cc1NC(=O)c1ccc2nc(OCCCN(C)C)ccc2c1 [Compound 22, N-(5-(2,3-Dihydrobenzo[b][1,4]dioxine-6-carboxamido)-2-methylphenyl)-2-(3-(dimethylamino)propoxy)quinoline-6-carboxamide] | 170 µL/min/mg | 90 µM (≈ 48.7 µg/mL) | 2 | 1.4 log unit
Cc1ccc(NC(=O)c2ccc3c(c2)OCCO3)cc1NC(=O)c1ccc2nc(OCCCN3CCOCC3)ccc2c1 [Compound 23, N-(5-(2,3-Dihydrobenzo[b][1,4]dioxine-6-carboxamido)-2-methylphenyl)-2-(3-morpholinopropoxy)quinoline-6-carboxamide] | 76 µL/min/mg | 7 µM (≈ 4.08 µg/mL) | 2.9 | –
Cc1ccc2cc(C(=O)Nc3cc(NC(=O)c4ccc5c(c4)OCCO5)ccc3C)ccc2n1 [Compound 1, N-(5-(2,3-Dihydrobenzo[b][1,4]dioxine-6-carboxamido)-2-methylphenyl)-2-methylquinoline-6-carboxamide] | 35 µL/min/mg | – | 2.6 | –
Cc1ccc(NC(=O)c2ccc3c(c2)OCCO3)cc1NC(=O)c1ccc2nc(OCCCN3CCCCC3)ccc2c1 [Compound 24, N-(5-(2,3-Dihydrobenzo[b][1,4]dioxine-6-carboxamido)-2-methylphenyl)-2-(3-(piperidin-1-yl)propoxy)quinoline-6-carboxamide] | 24 µL/min/mg | – | 2.4 | –
COCCOc1ccc2cc(C(=O)Nc3cc(NC(=O)c4ccc5c(c4)OCCO5)ccc3C)ccc2n1 [Compound 21, N-(5-(2,3-Dihydrobenzo[b][1,4]dioxine-6-carboxamido)-2-methylphenyl)-2-(2-methoxyethoxy)quinoline-6-carboxamide] | 92 µL/min/mg | 5 µM (≈ 2.57 µg/mL) | 3.3 | –

From publication PMC6014687 (2016)
